Experimental data: PubChem BioAssay AID540277 (National Center for Advancing Translational Sciences (NCATS), 2011)
The other results are listed elsewhere or left out. Records with an inconclusive call do not appear. Activity calls are given as the source filed them. No stated cut-off is given here; in the data, active means potentiation above about 80%; inconclusive means between about 30% and that limit; inactive means weaker than that.

Sequences of proteins named here, by UniProt entry; tags and fusion partners are left off.
UniProt Q8NER1, whole entry: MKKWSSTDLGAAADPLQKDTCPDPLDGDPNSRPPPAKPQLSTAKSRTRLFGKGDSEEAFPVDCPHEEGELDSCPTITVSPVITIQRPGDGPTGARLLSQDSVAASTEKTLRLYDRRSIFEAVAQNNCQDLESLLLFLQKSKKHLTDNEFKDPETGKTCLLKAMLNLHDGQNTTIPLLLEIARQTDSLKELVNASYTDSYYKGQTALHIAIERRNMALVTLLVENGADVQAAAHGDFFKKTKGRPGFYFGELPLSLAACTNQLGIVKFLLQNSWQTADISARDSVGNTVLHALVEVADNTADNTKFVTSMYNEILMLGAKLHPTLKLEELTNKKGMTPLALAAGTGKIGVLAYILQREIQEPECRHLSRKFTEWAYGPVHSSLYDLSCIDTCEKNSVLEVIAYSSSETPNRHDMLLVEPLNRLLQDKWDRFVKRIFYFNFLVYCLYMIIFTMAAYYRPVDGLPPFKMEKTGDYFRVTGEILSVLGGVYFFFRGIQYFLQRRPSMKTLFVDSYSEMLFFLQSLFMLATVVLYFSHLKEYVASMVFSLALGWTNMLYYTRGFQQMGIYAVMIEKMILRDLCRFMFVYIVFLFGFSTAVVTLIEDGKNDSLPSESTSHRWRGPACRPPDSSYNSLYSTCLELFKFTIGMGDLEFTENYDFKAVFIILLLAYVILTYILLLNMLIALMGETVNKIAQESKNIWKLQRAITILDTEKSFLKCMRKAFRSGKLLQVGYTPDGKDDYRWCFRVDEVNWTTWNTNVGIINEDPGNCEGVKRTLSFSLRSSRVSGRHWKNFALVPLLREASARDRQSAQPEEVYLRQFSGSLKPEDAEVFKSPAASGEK

These compounds were tested against Transient receptor potential cation channel subfamily V member 1 (Homo sapiens) (UniProt Q8NER1) (assay: HTS Assay for Compounds that Act as Potentiators of the Vanilloid Receptor 1). Details: TRPV1-expressing cells, Fluo-8 calcium influx, capsaicin EC20 potentiation; at 8.33 µM; active compounds read high.
Description: The transient receptor potential ion channel, family V, number 1, (TRPV1) is one of the most important molecular transducers of painful stimuli and a potential target for analgesic drug development. Although recent clinical trials with orthosteric antagonists have not produced a successful drug because of a hyperthermia side effect and their tendency to block thermal noxious pain, this ion channel is undeniably well placed in the pain pathway, and the idea of blocking pain signals before they enter the CNS is an excellent concept and of proven efficacy when TRPV1 agonists are used. We propose a new approach involving allosteric modulation to impose an activity-dependent constraint within the context of inflammation and tissue damage that would alter the responsiveness of the channel in a way that an orthosteric vanilloid antagonist cannot achieve. We believe that the allosteric modulator approach has not been explored for this target. The main goal of this proposal is to identify additional, new, potent allosteric modulators of TRPV1 that can be used to investigate TRPV1 function. Our recent report provides evidence of proof of concept, but the compounds are just at the edge of utility in terms of potency. […] The question of whether they can be used as analgesic agents is complex, but if suitable compounds are identified then testing for analgesic properties will be conducted. NIH Chemical Genomics Center [NCGC] NIH Molecular Libraries Probe Centers Network [MLPCN] MLPCN Grant: MH089480-1A1 Assay Submitter (PI): Michael Iadarola, National Institute of Dental and Cranofacial Research
Upon TRPV1 activation in TRPV1 cells, the channel opens and extracellular cations flow through the channel into the cytosol. A calcium binding dye (Fluo-8) becomes fluorescent when bound to calcium. This dye is pre-loaded into cells and is used as a marker for calcium influx. The amount of accumulated calcium is precisely quantified using the FDSS kinetic reader and the calcium dye. For the HTS assay, freshly prepared cells are plated at a density of 2000/well in 3 ul medium in 1536-well plates and cultured overnight at 35.5C. Cells will be loaded with 1 ul of the homogeneous calcium dye (ABD Bioquest) at room temperature for 40 to 90 minutes. Plates will be loaded into the FDSS kinetic reader and a 1 sec / cycle for 10 second baseline signal will be measured. Compound library will then be added with a pintool at 23 nl and measured kinetically for 3 minutes. This portion of the read is considered the agonist portion of the screen. Following the 3 minutes of incubation, an on board pipettor will deliver 1 ul of capsaicin for a final concentration equal to the EC20. Signal will be measured kinetically for an additional 2 minutes. This portion of the read is considered the allosteric enhancer portion of the screen. The FDSS reader has a standard filter set capable of measuring calcium bound Fluo-8 (ex=480 and em=520 nm).
Further: 0% is about no effect.

Structure (SMILES) | potentiation
O=C(/C=C/c1ccccc1)OC1CN2CCC1CC2 (stereo not given) | inactive: -5.9%
CN(C)C1(CNC(=O)c2ccc(S(C)(=O)=O)cc2)CCCCC1 | inactive: -9.21%
CC1=C2N=C(C=C3N=C(C(C)=C4[N-][C@@](C)([C@@H]5N=C1[C@](C)(CCC(=O)NC[C@@H](C)OP(=O)([O-])O[C@H]1[C@@H](O)[C@@H](n6cnc7cc(C)c(C)cc76)O[C@@H]1CO)[C@H]5CC(N)=O)[C@@](C)(CC(N)=O)[C@@H]4CCC(N)=O)[C@@](C)(CC(N)=O)[C@@H]3CCC(N)=O)C(C)(C)[C@@H]2CCC(N)=O.[C-]#N.[Co+3] | inactive: -6.09%
O=[N+]([O-])c1cc([N+](=O)[O-])c(Nc2nnnn2CCO)c([N+](=O)[O-])c1 | inactive: 5.36%
COc1cc(C2NCCC3(OCCO3)C2(C)C)cc(OC)c1OC.O=[N+]([O-])c1cc([N+](=O)[O-])c(O)c([N+](=O)[O-])c1 (stereo not given) | inactive: -3.07%
CC1CCC(C(C)C)C(OP(=O)(Nc2ccccn2)c2ccccc2)C1 (stereo not given) | inactive: 7.12%
Cc1nn(-c2ccccc2)c2c1P(=O)(N1CCOCC1)N(C)C(c1ccccc1)=N2 (stereo not given) | inactive: -7.59%
Cc1ccc(OCC(=O)OC2CN3CCC2CC3)cc1 (stereo not given) | inactive: 11.5%
O=[As](O)(c1cccs1)c1cccs1 | inactive: 20.2%
O=P1(Nc2ccc(Br)cn2)COc2ccccc2OC1 | inactive: -14.4%
NS(=O)(=O)c1cccc(NC(=O)COC(=O)C(O)(c2ccccc2)c2ccccc2)c1 | inactive: 6.86%
CCCOc1ccc(NP(C)(=O)Oc2ccc(Cl)cc2)cc1 (stereo not given) | inactive: 5.39%
Nc1cccc([As](=O)(O)c2ccccc2)c1 | inactive: 5.45%
CP(=O)(Nc1ccc(SC(F)(F)F)cc1)Oc1ccccc1 (stereo not given) | inactive: -13.5%
COc1ccccc1OP(C)(=O)Nc1c(C)cccc1C (stereo not given) | inactive: 2.57%
CN1CCCCC1COC(=O)C1(O)c2ccccc2CCc2ccccc21 (stereo not given) | inactive: -0.057%
O=P1(Nc2ncccn2)COc2ccccc2OC1 | inactive: 0.0034%
CC(C)(C)C(=O)NC(Sc1ncccn1)C(Cl)(Cl)Cl (stereo not given) | inactive: -2.78%
Clc1n[nH]nc1-c1nn[nH][15n]1 | inactive: -10.8%
CCOP(=O)(Nc1ccc(C)cn1)OCC | inactive: -1.86%
O=[N+]([O-])c1cc([N+](=O)[O-])c(-n2nnc3ccccc32)c([N+](=O)[O-])c1 | inactive: -5.45%
CCOP(=O)(NC(=NC(C)c1ccccc1)NC(C)c1ccccc1)OCC (stereo not given) | inactive: -28.5%
O=P1(Nc2ccccn2)COc2ccccc2OC1 | inactive: 2.73%
CCC1=CC2Cc3nc4ccc(Cl)cc4c(N)c3C(C1)C2 (stereo not given) | inactive: 6.89%

Structure (SMILES) | potentiation
Cc1nc2ccc3ccccc3c2s1.O=[N+]([O-])c1cc([N+](=O)[O-])c(O)c([N+](=O)[O-])c1 | inactive: -18.2%
O=[As](O)(c1ccccc1Br)c1ccccc1Br | inactive: -7.15%
CC(C)/C=N\N=C(\N)N[N+](=O)[O-] | inactive: 12.7%
CN(C(=O)Cc1ccc(Cl)c(Cl)c1)[C@@H]1CCCC[C@H]1N1CCCC1 | inactive: -5.77%
COc1ccccc1CNC(=O)COC(=O)C(O)(c1ccccc1)c1ccccc1 | inactive: -5.33%
CCOC(=O)c1ccc(NP(C)(=O)Oc2cc(C)cc(C)c2)cc1 (stereo not given) | inactive: 2.1%
Cc1cc(C)cc(OP(C)(=O)Nc2ccc(C)cc2C)c1 (stereo not given) | inactive: 17.8%
Cc1cccc(OCC(=O)OC2CN3CCC2CC3)c1 (stereo not given) | inactive: 19.8%
COc1ccccc1OP(C)(=O)Nc1cccc(Br)c1 (stereo not given) | inactive: -9.49%
CS(=O)(=O)c1ccc(Cl)c(NC(=O)COC(=O)C(O)(c2ccccc2)c2ccccc2)c1 | inactive: 7.09%
O=[As](O)(O)c1cccnc1 | inactive: 3.69%
COc1cc(C(=O)NCC2(N3CCOCC3)CCCCC2)cc(Cl)c1OC(C)C | inactive: -33.4%
O=C(OC1CN2CCC1CC2)c1ccc(Cl)cc1 (stereo not given) | inactive: -5.94%
CCOP(=O)(Nc1cccc2ccccc12)OCC | inactive: 1.07%
Cc1ccc(C)c(NP(C)(=O)Oc2ccccc2)c1 (stereo not given) | inactive: 28.5%
CCCOP(=S)(Nc1nc(N)cc(=O)[nH]1)OCCC | inactive: 1.64%
Cc1ccc(NCCc2c([N+](=O)[O-])cc([N+](=O)[O-])cc2[N+](=O)[O-])cc1 | inactive: 0.851%
Nc1cccc2c([As](=O)(O)O)cccc12 | inactive: -2.16%
Cc1cc(C)cc(OP(C)(=O)Nc2ccccn2)c1 (stereo not given) | inactive: 1.05%
CP(=O)(Nc1cccc(Br)c1)Oc1ccccc1 (stereo not given) | inactive: -9.97%
Nc1ccccc1[As](=O)(O)c1ccccc1 | inactive: 5.41%
O=C(O)COc1ccc([As](=O)(O)O)cc1[N+](=O)[O-] | inactive: 4.17%
O=P(Nc1nccs1)(Oc1ccccc1)Oc1ccccc1 | inactive: 24.9%
O=P(Nc1nccs1)(c1ccccc1)c1nc2ccccc2s1 (stereo not given) | inactive: 23.7%

Structure (SMILES) | potentiation
CCOP1(=S)c2c(C)nn(CCC#N)c2N=C(c2ccccc2F)N1C (stereo not given) | inactive: -9.26%
CC1=NCCc2c1[nH]c1ccccc21.O=[N+]([O-])c1cc([N+](=O)[O-])c(O)c([N+](=O)[O-])c1 | inactive: 0.821%
O=[N+]([O-])c1ccc2c(c1)nnn2O | inactive: -5.24%
CCOP1(=S)c2c(C)nn(CCC#N)c2N=C(c2ccc(F)cc2)N1C (stereo not given) | inactive: -23.9%
CN(C(=O)Cc1ccccc1)[C@@H]1CC[C@]2(CCCO2)C[C@H]1N1CCCC1 | inactive: -2.5%
N#CCCN(C(=O)COC(=O)C(O)(c1ccccc1)c1ccccc1)c1ccc(F)cc1 | inactive: 4.05%
NC(=O)Nc1ccc([As](=O)(O)O)cc1 | inactive: -5.6%
O=[N+]([O-])c1ccc2c(c1)C=Nc1ccccc1O2 | inactive: 1.61%
Cc1ccc2nc3c(c(C)c2c1)CC(C(Cl)Cl)S3 (stereo not given) | inactive: -3.63%
Cc1cccc(C)c1OP(C)(N)=O (stereo not given) | inactive: -13%
Cc1ccc(OP(=O)(Nc2ccc([N+](=O)[O-])cn2)Oc2ccc(C)cc2)cc1 | inactive: 5.7%
CC(C)(C)c1ccc(OP(C)(=O)Nc2ccc(SC(F)(F)F)cc2)cc1 (stereo not given) | inactive: 2.73%
COc1cc(C(=O)NCC2(N3CCOCC3)CCCCC2)ccc1OCC(C)C | inactive: -6.85%
C[As](=O)(O)c1cccc(C(=O)O)c1 | inactive: 6.76%
O=[As](O)(c1ccc(O)cc1)c1ccccc1O | inactive: -13.2%
O=[N+]([O-])c1cc([N+](=O)[O-])c(Nc2cccnc2)c([N+](=O)[O-])c1 | inactive: 25.3%
Cc1cc(C)cc(OP(C)(N)=O)c1 (stereo not given) | inactive: 26.2%
COc1ccc(OP(C)(=O)Nc2cccc(F)c2)cc1 (stereo not given) | inactive: 1.46%
O=[N+]([O-])c1cc([N+](=O)[O-])c(-c2ccn[nH]2)s1 | inactive: -2.7%
COc1ccccc1OP(C)(=O)Nc1cc(Cl)ccc1C (stereo not given) | inactive: 2.54%
CC(C)NC(=O)NP(=O)(Oc1ccccc1)Oc1ccccc1 | inactive: 9.58%
CCN(CC)C(=S)SC(NC=O)C(Cl)(Cl)Cl (stereo not given) | inactive: -13.8%
Cc1ccc(NP(C)(=O)Oc2ccccc2)c(C)c1 (stereo not given) | inactive: 4.11%
CC(C)c1ccc(OP(=O)(Nc2ccccn2)Oc2ccccc2F)cc1 (stereo not given) | inactive: -10.4%

Structure (SMILES) | potentiation
COc1ccccc1OP(C)(=O)Nc1ccc(C)cc1 (stereo not given) | inactive: 15.9%
ClCCSc1nnc(-c2cccnc2)o1 | inactive: 2.38%
COc1cc(I)ccc1[As](=O)(O)O | inactive: -4.26%
COc1ccc2nc(NP(=O)(c3ccccc3)c3ccccc3)sc2c1 | inactive: -2.25%
Cc1cc(=O)[nH]c(N[N+](=O)[O-])n1 | inactive: -6.18%
CCN(CC)CCCOC(=O)C(O)(c1ccccc1)c1ccccc1 | inactive: -7.24%
Cc1c2c(nc3ccccc13)SC(C(Cl)Cl)C2 (stereo not given) | inactive: -18.7%
COc1ccc(N/C(=N/P(=O)(N2CCOCC2)N2CCOCC2)N2CCOCC2)cc1 | inactive: 3.7%
O=C(Nc1ccncc1[N+](=O)[O-])c1ccc([N+](=O)[O-])cc1[N+](=O)[O-] | inactive: 2.12%
Cc1cc(C)cc(OP(C)(=O)Nc2ccc(SC(F)(F)F)cc2)c1 (stereo not given) | inactive: 3.09%
CP(=O)(NC(=O)Nc1ccccc1)Oc1ccccc1 (stereo not given) | inactive: 4.94%
CCc1ccc(OP(C)(=O)N2CCN(c3ccc([N+](=O)[O-])cc3)CC2)cc1 (stereo not given) | inactive: -26.3%
CP(=O)(Oc1ccccc1)OC(c1ccccc1)C(F)(F)F (stereo not given) | inactive: -20.9%
COP1(=S)c2c(C)nn(CCC#N)c2N=C(c2ccc(F)cc2)N1C (stereo not given) | inactive: -10.7%
Cc1cccc(C)c1OP(C)(=O)Nc1ccc(SC(F)(F)F)cc1 (stereo not given) | inactive: -3.81%
CP(=O)(Nc1ccc(SC(F)(F)F)cc1)Oc1ccc(Cl)cc1 (stereo not given) | inactive: -4.8%
CP(=O)(Nc1ccccn1)Oc1ccc(Cl)cc1 (stereo not given) | inactive: 0.614%
CCOP(=O)(Nc1cccc2cccnc12)OCC | inactive: 2.81%
CCOC(=O)c1ccc(NC(=O)C(C)(CCl)SC)cc1 (stereo not given) | inactive: 0.435%
CCOC(=O)c1ccc(NP(C)(=O)Oc2ccc(OC)cc2)cc1 (stereo not given) | inactive: 24%
O=C(OC1CN2CCC1CC2)c1cccc([N+](=O)[O-])c1 (stereo not given) | inactive: -9.95%
CCOP(C)(=S)SCC(=O)NC(C)C(=O)O (stereo not given) | inactive: -6.21%
Cc1cc(SC(NC(=O)c2ccccc2)C(Cl)(Cl)Cl)nc(C(C)C)n1 (stereo not given) | inactive: 9.55%
